The chains behind the UniProt entries cited, without tags or fusion partners. Where a name states a change or a piece, a line headed by the entry shows the natural chain unless it says otherwise.
UniProt O60674: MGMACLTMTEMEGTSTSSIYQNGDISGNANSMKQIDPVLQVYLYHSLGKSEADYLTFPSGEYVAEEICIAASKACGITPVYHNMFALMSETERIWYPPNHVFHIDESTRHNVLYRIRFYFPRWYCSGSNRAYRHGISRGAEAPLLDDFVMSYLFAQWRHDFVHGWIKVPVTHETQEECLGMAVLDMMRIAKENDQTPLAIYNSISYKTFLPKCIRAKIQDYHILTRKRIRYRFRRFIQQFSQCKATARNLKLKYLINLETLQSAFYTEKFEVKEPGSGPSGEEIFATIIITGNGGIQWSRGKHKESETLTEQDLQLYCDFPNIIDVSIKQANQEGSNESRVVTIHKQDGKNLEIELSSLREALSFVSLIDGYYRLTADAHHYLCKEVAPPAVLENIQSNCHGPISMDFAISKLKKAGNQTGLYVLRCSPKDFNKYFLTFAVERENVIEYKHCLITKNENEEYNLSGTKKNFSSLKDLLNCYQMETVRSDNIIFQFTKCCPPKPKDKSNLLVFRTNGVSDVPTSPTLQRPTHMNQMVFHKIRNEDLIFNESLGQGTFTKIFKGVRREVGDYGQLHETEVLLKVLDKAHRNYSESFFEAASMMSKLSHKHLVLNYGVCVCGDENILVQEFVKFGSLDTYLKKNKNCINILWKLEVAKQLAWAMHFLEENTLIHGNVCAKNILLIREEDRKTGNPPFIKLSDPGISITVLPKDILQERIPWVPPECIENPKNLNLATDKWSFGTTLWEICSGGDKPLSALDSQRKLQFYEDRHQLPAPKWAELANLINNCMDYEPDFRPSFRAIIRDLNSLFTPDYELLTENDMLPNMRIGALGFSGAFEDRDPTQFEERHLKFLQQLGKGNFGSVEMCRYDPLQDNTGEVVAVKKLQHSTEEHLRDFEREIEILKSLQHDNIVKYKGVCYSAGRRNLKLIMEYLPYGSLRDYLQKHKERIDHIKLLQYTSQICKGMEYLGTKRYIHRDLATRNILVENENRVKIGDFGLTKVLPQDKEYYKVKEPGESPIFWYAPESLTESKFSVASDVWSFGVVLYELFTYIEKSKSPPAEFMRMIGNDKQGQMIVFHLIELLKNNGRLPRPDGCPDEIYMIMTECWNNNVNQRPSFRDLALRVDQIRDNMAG

According to patent US10106559B2, “Substituted tetrahydrocarbazole and carbazole carboxamide compounds” (BRISTOL-MYERS SQUIBB COMPANY, priority 2013, dated 2018):

Experiments:
Jak2 tyrosine kinase = Jak2 tyrosine kinase (Homo sapiens (Human), UniProt O60674); assay: Jak2 Tyrosine Kinase Assay; format: biochemical; settings: selectivity: Jak2 IC50 divided by Btk IC50
[1] = test system: CD69 expression on B cells in human whole blood; assay: Whole Blood Assay of BCR-Stimulated CD69 Expression on B Cells; format: cell-based; settings: B-cell

| Ratio of Jak2/Btk IC50 values (Jak2 tyrosine kinase) | IC50 [1] [nM] | Structure (SMILES) |
| --- | --- | --- |
| 6300 | – | Cc1c(-c2c(Cl)cc(C(N)=O)c3[nH]c4c(c23)CC[C@H](C(C)(C)O)C4)cccc1-n1c(=O)c2cccc(F)c2n(C)c1=O (atropisomer, axis not shown) [Example 26, 6-Chloro-5-(R)-(3-(S)-(8-fluoro-1-methyl-2,4-dioxo-1,2-dihydroquinazolin-3(4H)-yl)-2-methylphenyl)-2-(S)-(2-hydroxypropan-2-yl)-2,3,4,9-tetrahydro-1H-carbazole-8-carboxamide] |
| >910 | – | Cc1c(-c2c(F)cc(C(N)=O)c3[nH]c4c(c23)CC[C@@H](C(C)(C)O)C4)cccc1-n1c(=O)c2cccc(F)c2n(C)c1=O (atropisomer, axis not shown) [Example 27, 6-Fluoro-5-(R)-(3-(S)-(8-fluoro-1-methyl-2,4-dioxo-1,2-dihydroquinazolin-3(4H)-yl)-2-methylphenyl)-2-(R)-(2-hydroxypropan-2-yl)-2,3,4,9-tetrahydro-1H-carbazole-8-carboxamide] |
| 15000 | 240 | [2H]C([2H])([2H])n1c(=O)n(-c2cccc(-c3c(Cl)cc(C(N)=O)c4[nH]c5c(c34)CC[C@H](C(C)(C)O)C5)c2C)c(=O)c2cccc(F)c21 (single isomer, unassigned) [Example 58] |
| 7000 | – | Cc1c(-c2c(C#N)cc(C(N)=O)c3[nH]c4cc(C(C)(C)O)ccc4c23)cccc1-n1c(=O)c2cccc(F)c2n(C)c1=O (single isomer, unassigned) [Example 16] |
